Results reported in article PMC5645071 (Journal of controlled release : official journal of the …, 2015).

Columns and labels:
[1] = tested on: H1650 cancer stem cell orthotopic lung tumor; type: in vivo; details: 20 mg/kg oral gavage
[2] = tested on: H1650 cancer stem cell xenograft tumor; type: in vivo; details: 20 mg/kg oral gavage

3, 3-Diindolylmethane-14 [DIM-14]
weight loss or other signs of toxicity in mice [1]: did not observe any weight loss or other signs of toxicity
weight loss or other signs of toxicity in mice [2]: did not observe any weight loss or other signs of toxicity
